Values quoted from earlier work as cited in paper PMC4624855.

Protein sequences, listed by entry. Tags and fused reporters are not part of them.
UniProt P15692, whole entry: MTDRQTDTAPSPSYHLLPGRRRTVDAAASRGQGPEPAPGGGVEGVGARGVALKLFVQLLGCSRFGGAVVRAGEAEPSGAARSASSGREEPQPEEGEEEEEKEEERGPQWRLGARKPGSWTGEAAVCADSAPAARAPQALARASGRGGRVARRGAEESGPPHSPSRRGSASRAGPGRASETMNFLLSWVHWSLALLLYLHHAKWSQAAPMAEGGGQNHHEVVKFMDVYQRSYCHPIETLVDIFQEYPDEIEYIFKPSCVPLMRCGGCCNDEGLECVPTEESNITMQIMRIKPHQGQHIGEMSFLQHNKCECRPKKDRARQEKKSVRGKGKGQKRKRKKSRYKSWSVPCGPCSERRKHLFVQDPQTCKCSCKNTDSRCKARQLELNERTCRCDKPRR

Target: VEGFA (Homo sapiens) (UniProt P15692)

Bevacizumab Fab
Kd: 0.058 nM
